Results as given in US9394285B2 (Pfizer Inc., priority 2013, dated 2016).

Sequences of proteins named here, by UniProt entry; tags and fusion partners are left off.
UniProt Q13131, whole entry: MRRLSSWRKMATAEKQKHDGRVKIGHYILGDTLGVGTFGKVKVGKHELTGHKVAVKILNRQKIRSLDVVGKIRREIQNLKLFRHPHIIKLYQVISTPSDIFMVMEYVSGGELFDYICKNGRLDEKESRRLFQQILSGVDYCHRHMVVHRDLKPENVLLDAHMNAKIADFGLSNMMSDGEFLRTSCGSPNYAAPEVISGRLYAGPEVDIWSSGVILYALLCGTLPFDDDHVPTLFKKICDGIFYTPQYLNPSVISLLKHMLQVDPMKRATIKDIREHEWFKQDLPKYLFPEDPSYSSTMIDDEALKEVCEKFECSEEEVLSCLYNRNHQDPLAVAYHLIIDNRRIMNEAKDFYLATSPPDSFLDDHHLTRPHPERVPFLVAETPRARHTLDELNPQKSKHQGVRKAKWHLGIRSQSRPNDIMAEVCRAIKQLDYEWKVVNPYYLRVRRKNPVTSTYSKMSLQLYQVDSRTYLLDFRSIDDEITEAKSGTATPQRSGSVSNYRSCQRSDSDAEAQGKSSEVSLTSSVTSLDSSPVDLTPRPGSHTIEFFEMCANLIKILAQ
UniProt Q9Y478, whole entry: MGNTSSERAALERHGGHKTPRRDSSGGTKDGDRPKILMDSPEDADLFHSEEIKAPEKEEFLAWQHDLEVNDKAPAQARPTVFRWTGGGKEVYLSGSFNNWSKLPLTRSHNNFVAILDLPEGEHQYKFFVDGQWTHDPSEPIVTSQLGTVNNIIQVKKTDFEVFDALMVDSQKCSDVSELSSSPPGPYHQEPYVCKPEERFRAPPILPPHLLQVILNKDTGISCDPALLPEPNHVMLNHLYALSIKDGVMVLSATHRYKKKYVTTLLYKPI
UniProt P54619, whole entry partner: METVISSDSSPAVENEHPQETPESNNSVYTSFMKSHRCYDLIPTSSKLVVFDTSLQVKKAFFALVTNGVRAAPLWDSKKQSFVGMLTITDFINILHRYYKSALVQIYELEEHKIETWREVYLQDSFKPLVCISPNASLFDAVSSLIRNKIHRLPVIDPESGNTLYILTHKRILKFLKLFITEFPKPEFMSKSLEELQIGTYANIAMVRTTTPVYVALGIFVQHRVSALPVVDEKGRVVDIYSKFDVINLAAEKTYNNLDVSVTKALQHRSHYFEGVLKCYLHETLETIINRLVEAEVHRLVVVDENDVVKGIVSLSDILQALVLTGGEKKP

Target: human AMPK (full-length γ1, β1 and α1 subunits) (Homo sapiens (Human), UniProt Q13131+Q9Y478)
Experiment: AMPK in vitro biochemical assay (33P-based, SAMS peptide, PP2A dephosphorylation)

EC50 (activation of phosphorylated AMPK, 33P-ATP, SAMS peptide, PP2A treatment, 4-parameter fit): 26.9 nM
Maximum (counts as % of positive control wells (enzyme, allosteric activator or AMP, PP2A and substrate)): 98%
Compound: COc1cc(-c2cc3c(C(=O)O)c[nH]c3cc2Cl)ccc1C(C)(C)CO
